These results are taken from patent publication US8986722B2, “Pest control composition” (priority 2010, dated 2015).

The data set is described as follows: HLB of polyglycerol fatty acid ester, Griffin formula 20(1−S/A). The format is physicochemical. The note with it: from saponification and acid values. An excerpt: The HLB (Hydrophile-Lipophile Balance) is an index indicating degrees of hydrophilic properties and lipophilic properties of a surfactant and being shown by a numerical value of 0 to 20. […] Therefore, a surfactant having a low HLB is apt to adapt to a hydrophobic system and a surfactant having a high HLB is apt to adapt to a hydrophilic system.
As the HLB value of said polyglycerol fatty acid ester, a numerical value derived from the following calculation method which is an empirical formula by Griffin is applied. In this regard, as the below-described saponification and acid values, values analyzed in accordance with general test procedures of standards for food additives and standards of quasi-drug ingredients are used. HLB value=20(1−S/A)
S: Saponification value for an ester of a surfactant.
A: Acid value of a fatty acid constituting a surfactant.

As for decaglycerol erucic acid ester, the HLB entry is listed as “about 3.5”.
